Assay outcomes from PubChem.
Rows were chosen to be rich in hits. Some 2.5% of all compounds tested hit in one or more screens of this group.
TrxR1 inh – rat TrxR1 inhibition. O89049. recombinant rTrxR1, NADPH fluorescence consumption, selenite substrate. Potency, µM (titrated, usually from 114 µM), for inactives: at the highest dose activity change, negative = inhibition, hits mostly inhibitors. 390,000 tested, 1% active; also: potency is read from the fitted curve at half-maximal effect; % is scaled to controls: 0 for no effect and ±100 for the full control effect; nearly all actives have a fitted effect of over 65% in size
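Rat TrxR1 (90 nM in the dispensed reagent) was pre-reduced with 400 uM NADPH for 5 min at room temperature, then incubated with compound for 15 min. After 400 uM selenite was added, NADPH fluorescence (Ex 340/Em 450 nm) was followed for 8 min.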
miR-21 reporter – miR-21 reporter, rising signal | HeLa miR-21 FLuc reporter, luciferase, 48 h | Potency, µM (top dose mostly 38.3 µM), inactives show at the top dose reporter change, positive = more light | 340,000 tested, under 10 active | AID 2288; active = well fitted rising curve with a large enough effect; inconclusive = small, poorly fitted or top-dose-only effect; inactive = no such curve, though single readings can be large or run the other way;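 further: % of control where 0% means no effect; miR-21 action dims this reporter so a rising signal means less miR-21 action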
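Compounds were titrated across several concentrations (up to approximately 40 uM) and incubated 48 hours with HeLa miR-21-FLuc reporter cells (miR-21 target sequence downstream of FLuc, endogenous miR-21). Readout was firefly luciferase luminescence after lytic detection reagent.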
ClpP mod – qHTS Assay for Activators of ClpP; ATP-dependent Clp protease proteolytic subunit (Bacillus subtilis (strain 168)), P80244; purified B. subtilis ClpP, FRET peptide cleavage, 20 min; Potency, µM (titrated, usually from 57.5 µM), without a hit: top-dose activity change, negative = active; 340,000 tested, 1.9% active; active = well fitted falling curve with a large enough effect; inconclusive = small, poorly fitted or top-dose-only effect; inactive = no such curve, though single readings can be large or run the other way; also: potency is read from the fitted curve at half-maximal effect; the source files actives as falling curves though it sought activators and does not explain the sign; nearly all actives have a fitted effect of over 65% in size
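Buffer: 100 mM Tris/HCl pH8, 100 mM KCl, 0.05% low protease BSA, 2.5% glycerol, 0.01% Tween-20. ClpP 10 microg/mL final; 20 min RT; delta FRET normalized to ADEP and DMSO controls.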
TrxR1 substrate – is turned over as a substrate by rat TrxR1 | Potency, µM (doses to about 114 µM), inactives show at the highest dose activity change, negative = substrate turnover | purified TrxR1 substrate turnover, NADPH consumption readout | O89049 | 390,000 tested, 0.01% active | AID 588456; also: potency is read from the fitted curve at half-maximal effect; % is scaled to controls: 0 for no effect and ±100 for the full control effect; nearly all actives have a fitted effect of over 50% in size
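Rat TrxR1, dispensed at 90 nM, was prereduced with 400 uM NADPH (final) for 5 min at ~22 deg C, then incubated with compound 15 min before 400 uM selenite. A first-read NADPH fluorescence drop versus no-compound background flagged substrates.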
Anesthetic bind – binds horse apoferritin like a general anesthetic; apoferritin/1-aminoanthracene competitive binding, fluorescence; 350,000 tested, 0.074% active; P02791; Potency, µM (doses to about 77.5 µM), without a hit: at the top dose activity change, negative = displacement, hits mostly inhibitors; also: potency is read from the fitted curve at half-maximal effect; % is scaled to controls: 0 for no effect and ±100 for the full control effect; nearly all actives have a fitted effect of over 20% in size
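Horse-spleen apoferritin (10 uM) in 50% saturated 1-aminoanthracene in PBS was incubated 10 min at room temperature with compound. Fluorescence (ex 380, em 535 nm) was normalized to free and bound 1-AMA, with concentration-response fitted by a four-parameter Hill equation.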
* marks the source's active call; other numbers are inactive results; ? = inconclusive; . = no result given; [ ] = dose if it differs, or a comment. Unless noted, calls follow the shape of the dose curve; as a rule, active = well fitted curve in the direction sought with a large enough effect; inconclusive = small, poorly fitted or top-dose-only effect, or another doubt; inactive = no such curve, though single readings can be large; an effect the other way counts as inactive or inconclusive.

Amino acid sequences for entries named in this document (tags omitted).
ATP-dependent Clp protease proteolytic subunit (Bacillus subtilis (strain 168)), P80244, UniProt P80244, whole entry, looked up: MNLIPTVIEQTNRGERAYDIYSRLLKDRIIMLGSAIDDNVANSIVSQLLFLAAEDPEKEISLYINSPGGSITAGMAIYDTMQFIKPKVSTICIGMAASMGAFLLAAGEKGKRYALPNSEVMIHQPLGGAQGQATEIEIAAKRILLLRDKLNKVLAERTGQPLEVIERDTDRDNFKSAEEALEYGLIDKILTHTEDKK

SMILES	TrxR1 inh	miR-21 reporter	ClpP mod	TrxR1 substrate	Anesthetic bind
COc1ccccc1-c1cc(C(F)(F)F)nc(S(C)(=O)=O)n1	35µM*	?	-1%	5%	-3%
COc1ccccc1-c1cc(C(F)(F)F)nc(S(=O)(=O)CCCC(=O)NC(C)C)n1	18µM*	2%	-5%	18%	-8%
COc1ccccc1-c1cc(C(F)(F)F)nc(S(=O)(=O)CCCC(=O)NCc2ccc(F)cc2)n1	?	?	-1%	149%	-18%
COc1cccc(CNC(=O)Cn2nc(N3CCN(c4ccccc4OC)CC3)ccc2=O)c1	24%[57.1 µM]	1%	1%	4%[57.1 µM]	-3%
O=C(NC1CCCCC1)c1ccc(CSc2nc3ccncc3n2Cc2cccc(F)c2)cc1	30%	?	-7%	2%	17%
CC12CCC(=O)N1C(C(=O)OCC(=O)Nc1cccc(Br)c1)CS2 (configuration not stated)	16%	2%	.	-5%	-22%
CN(C(=O)COC(=O)C1CSC2(C)CCC(=O)N12)c1ccccc1 (configuration not stated)	16%	.	28µM*	-3%	.
CCCN1Cc2cccc(C(=O)Nc3ccc(OC)cc3OC)c2C1=O	12%	-15%	1%	2%	-23%
Cc1ccc2c(c1)[nH]c1c(=O)n(CCCN3CCOCC3)cnc12	12%[57.1 µM]	-15%	28µM*	15%[57.1 µM]	-9%
O=c1c2[nH]c3ccccc3c2ncn1CCN1CCOCC1	5%[57.1 µM]	-7%	?	-7%[57.1 µM]	-8%
Cc1ccc2[nH]c3c(=O)n(Cc4ccncc4)cnc3c2c1	11%	1%	14µM*	10%	1%
O=c1c2[nH]c3ccccc3c2ncn1CCN1CCCCC1	-10%	-9%	25µM*	30%	-16%
Cc1ccc2c(c1)[nH]c1c(=O)n(CCN3CCCCC3)cnc12	7%[57.1 µM]	-4%	?	16%[57.1 µM]	-10%
COc1ccc(-c2nc3sc(CCNC(=O)c4ccc(Br)o4)c(C)n3n2)cc1	11%[57.1 µM]	-21%	-2%	-1%[57.1 µM]	1%
CC(CC(=O)NCc1ccc(Cl)cc1Cl)CC1=NS(=O)(=O)c2ccccc2N1 (configuration not stated)	4%[57.1 µM]	23%	-2%	-8%[57.1 µM]	-16%
N#Cc1c([N+](=O)[O-])cc([N+](=O)[O-])cc1S(=O)(=O)Cc1ccccc1	0.71µM*	.	0%	?	.
COc1cc(OC)c(C#N)c(S(=O)(=O)Cc2ccccc2)c1	10%[57.1 µM]	0%	-12%	10%[57.1 µM]	-17%
CC(C)CCN1C(=O)c2ccccc2CC1(C)C(=O)NC1CCC(C)CC1 (configuration not stated)	7%	0%	0%	-4%	5%
CCOc1ccccc1C(=O)Nc1cccc2ccc(C)nc12	3%	-4%	32µM*	-7%	-7%
O=C(NCCn1ccc2ccccc21)c1ccc(Cl)cc1	2%	-47%	-1%	-10%	3%
COc1cc(C(=O)Nc2ccc3nc(SCc4ccccc4)sc3c2)cc(OC)c1OC	49%	20%	?	16%	-4%
CCc1ccc(/C=C/C(=O)c2cc(Br)ccc(=O)c2O)cc1	?	23%	-2%	-11%	-19%
CCOc1ccc(/C=C/C(=O)c2cc(Br)ccc(=O)c2O)cc1	35µM*	?	1%	-11%	-20%
Cc1ccc(NC(=O)Cc2ccc(NC(=O)N3CCCCc4ccccc43)cc2)cc1Cl	-1%[57.1 µM]	-1%	-10%	-6%[57.1 µM]	2%
Cc1ccc(CCNC(=O)CCN2N=C(c3ccc(C)cc3)CCC2=O)cc1	-12%[57.1 µM]	2%	-1%	-14%[57.1 µM]	-16%
CCOC(=O)N1CCN(c2nc(-c3cccc(OC)c3)cc(C(F)(F)F)n2)CC1	15%	0%	28µM*	21%	-10%
CCOC(=O)N1CCN(c2nc(-c3ccco3)cc(C(F)(F)F)n2)CC1	-66%	-1%	3%	1%	-5%
Cc1cnc2c3c(cc(Cl)c2c1)-c1ccccc1S(=O)(=O)N3	32µM*	.	.	8%	.
CCOC(=O)c1ccc(OCC2c3cc(OC)c(OC)cc3CCN2C(=O)c2ccc(S(=O)(=O)N3CCCC3)cc2)cc1 (configuration not stated)	10%[57.1 µM]	-4%	-3%	0%[57.1 µM]	-3%
CS(=O)(=O)n1nc(OC(=O)c2cccc3ccccc23)cc1N	56µM*	-10%	73%	-5%	?
CS(=O)(=O)n1nc(OC(=O)c2cc(Br)ccc2Cl)cc1N	6.3µM*	1%	-1%	0%	-3%
O=C1C=CC(=O)C(C2=C3C(=O)N(CCc4ccccc4)CC(=O)N3CCC2)=C1	3.2µM*	?	2%	0%	0%
Cc1cccc(S(=O)(=O)Nc2nc3ccccc3nc2NCc2ccco2)c1	?	-4%	-7%	9%	-4%
Cc1ccc(S(=O)(=O)Nc2nc3ccccc3nc2NCc2ccco2)cc1C	-6%	7%	28µM*	34%	-10%
Cc1ccc(S(=O)(=O)Nc2nc3ccccc3nc2NCc2ccco2)cc1	8.9µM*	-49%	?	18%	-9%
CN(CC(=O)N1CCN(c2ncccn2)CC1)S(=O)(=O)c1ccc(Cl)cc1	17%[57.1 µM]	-11%	.	8%[57.1 µM]	-2%
COc1ccc(CC(=O)N2CCN(c3ccccn3)CC2)cc1	5%	-22%	20µM*	12%	1%
CN(CC(=O)N1CCN(c2ccccn2)CC1)S(=O)(=O)c1ccccc1	9%[57.1 µM]	-37%	32µM*	12%[57.1 µM]	4%
Cc1ccc(CC(=O)N2CCN(c3ccccn3)CC2)cc1	12%	-20%	22µM*	19%	-1%
COc1cccc(C(O)c2nc(/C=C/c3ccc(C(F)(F)F)cc3)cs2)c1 (configuration not stated)	.	.	28µM*	.	.

3 entries already listed, sorted by molecular weight, largest number first:
SMILES	TrxR1 inh	miR-21 reporter	ClpP mod	TrxR1 substrate	Anesthetic bind
Cc1cccc(S(=O)(=O)Nc2nc3ccccc3nc2NCc2ccco2)c1	?	-4%	-7%	9%	-4%
CCOC(=O)N1CCN(c2nc(-c3ccco3)cc(C(F)(F)F)n2)CC1	-66%	-1%	3%	1%	-5%
Cc1cnc2c3c(cc(Cl)c2c1)-c1ccccc1S(=O)(=O)N3	32µM*	.	.	8%	.

Profiles from above.
Entry for Cc1ccc2c(c1)[nH]c1c(=O)n(CCN3CCCCC3)cnc12 = TrxR1 inh = 7%[57.1 µM]; miR-21 reporter = -4%; ClpP mod = ?; TrxR1 substrate = 16%[57.1 µM]; Anesthetic bind = -10%
Entry for COc1cc(OC)c(C#N)c(S(=O)(=O)Cc2ccccc2)c1 = TrxR1 inh = 10%[57.1 µM]; miR-21 reporter = 0%; ClpP mod = -12%; TrxR1 substrate = 10%[57.1 µM]; Anesthetic bind = -17%

(further entries)
SMILES	TrxR1 inh	miR-21 reporter	ClpP mod	TrxR1 substrate	Anesthetic bind
Cc1cccc(CCn2c(=O)c3ccccc3n(Cc3cccc(F)c3)c2=O)c1	8%	-17%	-9%	-7%	-3%
COc1cc([N+](=O)[O-])ccc1NC(=O)N1CCC2(CC1)Nc1ccccc1-n1cccc12	30%[57.1 µM]	2%	-2%	-3%[57.1 µM]	-17%
O=C(O)Cc1coc2cc3c(cc12)CCC3	-8%	-1%	25µM*	-6%	-6%
O=S1(=O)CCOC[C@H](c2ccccc2)N1Cc1ccc(Cl)c(Cl)c1	31%	.	1%	-1%	.
CCOc1cccc(-c2cc(=O)[nH][nH]2)c1	36%	0%	14µM*	5%	2%
COc1cccc(-c2cc(=O)[nH][nH]2)c1	25%	-1%	.	4%	2%
CCc1nc(SCC(=O)c2cc(C)ccc2C)n[nH]1	?	-7%	-3%	-4%	-3%
Cc1ccc(C)c(C(=O)CSc2n[nH]c(C)n2)c1	35µM*	-13%	-1%	-3%	-11%
O=C(CSc1nc(-c2ccccc2)cc(C(F)(F)F)n1)NCc1cccs1	3%	-2%	3%	0%	-7%
